scFv variants of Ab-14 (heavy chain) against a SARS-CoV-2 spike peptide

From the AlphaSeq antibody data of Engelhart et al. 2022 (doi:10.1038/s41597-022-01779-4), copy in the FLAb collection.

All variants were tested on one target, the spike HR2 peptide PDVDLGDISGINAS (SARS-CoV-2).

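Variants in AAYL49 differ from the parent at up to three CDR positions; double and triple changes were sampled at random. AlphaSeq pools MATa yeast showing the antibodies with MATalpha yeast showing the peptide. Pairs that bind mate more often; barcode pairs of the diploids are counted by sequencing. The ratio of observed to expected reads was calibrated, replicate by replicate, on BCL2-family standards whose Kd was known from biolayer interferometry. The assay was run in three technical replicates.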

The variants keep the light chain, the linker and the frameworks of Ab-14 (scFv order VH, the linker GGGGSGGGGSGGGGS, VL).
VH: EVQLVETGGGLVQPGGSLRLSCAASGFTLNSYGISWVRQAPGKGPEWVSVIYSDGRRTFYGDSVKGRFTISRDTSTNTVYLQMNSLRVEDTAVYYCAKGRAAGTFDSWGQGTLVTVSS
VL: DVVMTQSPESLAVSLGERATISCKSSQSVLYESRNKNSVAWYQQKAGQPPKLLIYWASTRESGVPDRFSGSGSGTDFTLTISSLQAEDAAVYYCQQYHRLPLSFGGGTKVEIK

Substitutions are numbered in sequence along the VH above, starting at 1 (not Kabat).
Affinities are written as log10 Kd with Kd in nM; a lower number is a better binder.
A pair that was not seen in that replicate is written "ND"; this usually means weak binding, but a binder can also be missed.
Parent in this assay: reference entry 0.65, copy in this library 4.11 (one replicate of three).
Nonspecific signal, from three strains lacking the peptide, appeared in 15% of pairings of library AAYL49, centred on 4.06 (5% of these signals below 2.83); values are not corrected for it. The control count says in how many pairings with the empty strains this scFv gave a signal, with their mean in brackets.

changes | log10 Kd, replicates | empty controls
T28F/S53C/R56A | ND / ND / ND | 0/9
V50C/Y52E/S53G | 3.53 / ND / ND | 2/9 (4.31)
F27G/L29T/G99A | ND / ND / ND | 0/9
D54F/F59Y/A102Y | ND / ND / ND | 0/9
T28K/I34Q/T104C | ND / ND / ND | 2/9 (3.18)
K65L/G99F/A102I | ND / ND / ND | 1/9 (3.95)
I51T/G99W | ND / ND / 4.89 | 0/9
S31G/V50Y/G61P | ND / ND / ND | 1/9 (3.83)
I51C/S53T/T58E | ND / ND / ND | 3/9 (3.86)
Y32H/R56I/S63Q | 2.68 / ND / 2.67 | 2/9 (3.28)
G26V/N30Y/K65M | ND / ND / ND | 0/9
D54M/R100N/A101Q | ND / ND / ND | 0/9
G33A/S53Q/S107I | ND / ND / 4.30 | 3/9 (3.87)
I34D/D62W/A102E | 3.29 / ND / ND | 1/9 (2.64)
T28L/S31P/V64C | ND / ND / ND | 0/9
F27Q/D54I/F105M | ND / ND / ND | 2/9 (3.70)
G55T/G61K/A101E | ND / ND / 4.85 | 3/9 (3.57)
I51Y/D62P/T104W | ND / 3.28 / ND | 4/9 (4.39)
G33K/S107V | ND / ND / ND | 0/9
Y32M/T104L/D106K | ND / ND / ND | 0/9
R56S/V64F/A101G | ND / 4.21 / ND | 1/9 (2.06)
D54Y/D62M/R100N | ND / ND / ND | 0/9
S107P | ND / ND / ND | 1/9 (4.49)
S53Y/G61L/S63P | ND / ND / 2.87 | 0/9
G26E/S31F/V64M | ND / ND / ND | 1/9 (4.70)
S31Y/G99P/T104Y | ND / ND / ND | 3/9 (3.25)
S53E/F59C/S63N | ND / ND / ND | 2/9 (4.14)
F27Y/I34Y | 0.14 / 0.24 / 0.20 | 0/9
F59A/K65N/R100W | ND / ND / ND | 0/9
I34N/I51K/R57K | ND / ND / ND | 2/9 (3.10)
V50S/R57M/A101W | ND / ND / ND | 0/9
N30K/V64T/F105G | ND / ND / ND | 0/9
R56E/Y60M/G99A | ND / ND / 5.91 | 3/9 (4.88)
D54V/F105K/D106N | 4.66 / ND / 4.47 | 2/9 (3.64)
F27E/S35P/D62Q | ND / ND / ND | 0/9
T28E/S63W/F105Q | ND / ND / ND | 0/9
G33K/D62P/T104C | ND / 3.19 / ND | 2/9 (4.77)
D54F/G61N/V64P | ND / ND / ND | 0/9